Data published in ChEMBL document CHEMBL1817669, “Design and pharmacological evaluation of PF-4840154, a non-electrophilic reference agonist of the TrpA1 channel” (Bioorg Med Chem Lett, 2011).

Amino acid sequences for entries named in this document (tags omitted).
UniProt Q6RI86, whole entry: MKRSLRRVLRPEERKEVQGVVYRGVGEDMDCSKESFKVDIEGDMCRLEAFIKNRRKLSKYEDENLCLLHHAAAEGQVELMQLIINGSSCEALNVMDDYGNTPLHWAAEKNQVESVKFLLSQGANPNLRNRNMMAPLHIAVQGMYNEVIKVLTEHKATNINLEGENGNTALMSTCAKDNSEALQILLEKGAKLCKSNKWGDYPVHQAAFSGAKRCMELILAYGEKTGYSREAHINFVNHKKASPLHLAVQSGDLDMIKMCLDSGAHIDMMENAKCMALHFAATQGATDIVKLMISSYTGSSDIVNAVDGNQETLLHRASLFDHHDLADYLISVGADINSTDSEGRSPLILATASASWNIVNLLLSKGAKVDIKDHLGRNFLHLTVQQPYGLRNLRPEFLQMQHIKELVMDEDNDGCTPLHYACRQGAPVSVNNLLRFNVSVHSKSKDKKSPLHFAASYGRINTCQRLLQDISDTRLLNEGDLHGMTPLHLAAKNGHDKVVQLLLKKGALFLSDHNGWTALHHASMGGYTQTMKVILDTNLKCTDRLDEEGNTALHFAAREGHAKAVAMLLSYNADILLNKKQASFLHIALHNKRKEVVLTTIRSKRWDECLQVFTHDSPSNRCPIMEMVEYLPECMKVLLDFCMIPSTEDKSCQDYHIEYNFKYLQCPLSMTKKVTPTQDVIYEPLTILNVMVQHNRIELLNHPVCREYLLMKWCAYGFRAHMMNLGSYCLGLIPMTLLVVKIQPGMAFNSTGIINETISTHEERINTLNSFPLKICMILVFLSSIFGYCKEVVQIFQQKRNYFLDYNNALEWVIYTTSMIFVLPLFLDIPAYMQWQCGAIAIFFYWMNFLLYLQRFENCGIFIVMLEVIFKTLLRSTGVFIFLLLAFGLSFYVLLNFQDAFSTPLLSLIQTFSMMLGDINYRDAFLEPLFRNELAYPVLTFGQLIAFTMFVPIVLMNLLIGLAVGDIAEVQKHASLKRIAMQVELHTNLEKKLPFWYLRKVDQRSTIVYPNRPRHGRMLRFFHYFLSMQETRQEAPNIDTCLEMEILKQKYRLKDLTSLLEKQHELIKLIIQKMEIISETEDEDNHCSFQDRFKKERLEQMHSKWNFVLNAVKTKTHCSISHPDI

Molecular target: Transient receptor potential cation channel subfamily A member 1 (Rattus norvegicus, UniProt Q6RI86)
Assay: Agonist activity at rat TRPA1 channel expressed in HEK293 cells assessed as calcium influx measured at every 1 second for 60 seconds by fluorescence analysis
Type: functional, cell-based

For `C=CCN=C=S` [ALLYL ISOTHIOCYANATE], the EC50 was 5.81 µM.
